## Binding of CDR-mutated scFvs to a peptide of the spike HR2 region

Values reported by Engelhart et al. 2022, doi:10.1038/s41597-022-01779-4 (FLAb copy).

Target peptide (SARS-CoV-2 spike, HR2 region): PDVDLGDISGINAS

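AAYL51 was designed without a model: most single CDR substitutions and a random sample of double and triple ones. The assay is AlphaSeq: two haploid yeast populations carry antibody and antigen on their surface. Pairs that bind mate more often; barcode pairs of the diploids are counted by sequencing. The ratio of observed to expected reads was calibrated, replicate by replicate, on BCL2-family standards whose Kd was known from biolayer interferometry. The assay was run in three technical replicates.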

The variants keep the light chain, the linker and the frameworks of Ab-91 (scFv order VL, a (GGGGS)3 linker, VH).
VL: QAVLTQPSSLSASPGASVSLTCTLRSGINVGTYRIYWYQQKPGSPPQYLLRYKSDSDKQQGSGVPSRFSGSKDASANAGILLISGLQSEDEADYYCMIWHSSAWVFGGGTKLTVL
VH: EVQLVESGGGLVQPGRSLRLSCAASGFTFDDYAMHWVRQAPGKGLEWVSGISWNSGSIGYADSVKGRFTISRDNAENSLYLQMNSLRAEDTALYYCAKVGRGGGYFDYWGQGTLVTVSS

Positions count from residue 1 of the parent VH; F27I puts I in place of F. Values are log10 of the apparent Kd in nM; lower means stronger binding. A pair that was not seen in that replicate is written "n.d."; this usually means weak binding, but a binder can also be missed. As a blank, each scFv also met three strains without target: over library AAYL51, 21% of these pairings were detected, typically at 4.54 and seldom below 3.26. For each scFv, signals with the empty controls are counted beside the result, with their mean in brackets.

| # | changes | log10 Kd, replicates | control signals |
|---|---|---|---|
| 1 | F27I I51M | n.d. / 4.23 / 4.93 | 2 of 9 (4.41) |
| 2 | V64I K65H Y105K | 5.25 / 5.13 / 5.34 | 3 of 9 (4.56) |
| 3 | G26A F29W G59Y | n.d. / 5.94 / 4.72 | 3 of 9 (4.88) |
| 4 | M34S V64Q K65E | 5.78 / n.d. / 4.69 | 1 of 9 (4.20) |
| 5 | G50M G102S | n.d. / n.d. / n.d. | 0 of 9 |
| 6 | H35A I51P | 5.76 / 5.30 / n.d. | 3 of 9 (4.70) |
| 7 | T28N S52D | n.d. / n.d. / n.d. | 0 of 9 |
| 8 | D30S D31C A33T | n.d. / n.d. / n.d. | 0 of 9 |
| 9 | W53V G56A S57Q | 1.18 / 1.30 / 0.59 | 5 of 9 (4.58) |
| 10 | H35W I51T G100A | n.d. / n.d. / n.d. | 0 of 9 |
| 11 | V64G Y105V F106Y | 4.53 / n.d. / n.d. | 0 of 9 |
| 12 | G100N Y105I | 3.72 / 4.81 / n.d. | 4 of 9 (4.51) |
| 13 | D30Q S57W G104R | n.d. / n.d. / n.d. | 1 of 9 (4.21) |
| 14 | I58H D107I | n.d. / n.d. / n.d. | 0 of 9 |
| 15 | D30E I51W | 4.74 / n.d. / n.d. | 1 of 9 (5.29) |
| 16 | F27V S57W R101G | n.d. / n.d. / n.d. | 2 of 9 (3.34) |
| 17 | A61F D62S Y108R | n.d. / n.d. / n.d. | 0 of 9 |
| 18 | F27P I51H G104T | n.d. / n.d. / n.d. | 1 of 9 (2.57) |
| 19 | G26D H35G K65G | n.d. / n.d. / n.d. | 0 of 9 |
| 20 | T28L G59A | n.d. / n.d. / n.d. | 0 of 9 |
| 21 | D31K Y105R F106R | n.d. / n.d. / n.d. | 0 of 9 |
| 22 | I58Y K65E G104A | n.d. / n.d. / n.d. | 2 of 9 (4.30) |
| 23 | I51E V64H D107H | n.d. / n.d. / n.d. | 2 of 9 (3.59) |
| 24 | Y32V I58S Y60M | 3.40 / 3.81 / 3.97 | 6 of 9 (5.10) |
| 25 | G26H N54L Y60Q | n.d. / n.d. / n.d. | 0 of 9 |
| 26 | M34I H35C V99T | n.d. / 5.19 / 2.67 | 3 of 9 (3.86) |
| 27 | W53H G104L | 5.84 / 5.32 / 4.93 | 7 of 9 (4.17) |
| 28 | H35E W53G G104A | n.d. / n.d. / n.d. | 0 of 9 |
| 29 | D30Q H35D S52Q | 5.23 / n.d. / n.d. | 1 of 9 (3.80) |
| 30 | D62Y G102H Y105D | n.d. / n.d. / n.d. | 0 of 9 |
| 31 | D30G W53I N54R | n.d. / n.d. / n.d. | 2 of 9 (4.82) |
| 32 | G26E M34K S52V | n.d. / n.d. / n.d. | 1 of 9 (4.08) |
| 33 | A33V G50V S52M | n.d. / n.d. / n.d. | 0 of 9 |
| 34 | F27P G50Y | 4.95 / 4.45 / n.d. | 1 of 9 (4.68) |
| 35 | M34H G56T Y60P | 5.30 / n.d. / n.d. | 5 of 9 (4.74) |
| 36 | M34A G50H D62I | n.d. / 4.09 / n.d. | 1 of 9 (4.61) |
| 37 | T28E F29G I58Y | 2.01 / 2.01 / 1.37 | 1 of 9 (3.75) |
| 38 | W53S Y60F G100R | n.d. / n.d. / n.d. | 0 of 9 |
| 39 | I51L G102S Y108Q | n.d. / n.d. / n.d. | 1 of 9 (4.38) |
| 40 | A33P S63A D107S | 3.55 / n.d. / n.d. | 1 of 9 (3.76) |
| 41 | A61W S63R V64G | n.d. / n.d. / n.d. | 1 of 9 (3.48) |
| 42 | D30L G103I | 3.79 / n.d. / n.d. | 2 of 9 (4.74) |
| 43 | F27P T28F D107Q | n.d. / n.d. / n.d. | 3 of 9 (3.56) |
| 44 | G26H A61G V99S | 4.19 / 5.83 / n.d. | 2 of 9 (4.08) |
| 45 | G26I H35Y I51P | n.d. / n.d. / n.d. | 4 of 9 (4.36) |
| 46 | G26S Y32R I51Q | 5.80 / n.d. / n.d. | 2 of 9 (4.01) |

For reference, the parent read 1.86 as the reference entry and 0.88 as a member of this library.